Test results from ChEMBL document CHEMBL1201862, “PubChem BioAssay data set” (2004).
Active and inactive are the calls of the source.

Sequences of proteins named here, by UniProt entry; tags and fusion partners are left off.
UniProt P05177, whole entry: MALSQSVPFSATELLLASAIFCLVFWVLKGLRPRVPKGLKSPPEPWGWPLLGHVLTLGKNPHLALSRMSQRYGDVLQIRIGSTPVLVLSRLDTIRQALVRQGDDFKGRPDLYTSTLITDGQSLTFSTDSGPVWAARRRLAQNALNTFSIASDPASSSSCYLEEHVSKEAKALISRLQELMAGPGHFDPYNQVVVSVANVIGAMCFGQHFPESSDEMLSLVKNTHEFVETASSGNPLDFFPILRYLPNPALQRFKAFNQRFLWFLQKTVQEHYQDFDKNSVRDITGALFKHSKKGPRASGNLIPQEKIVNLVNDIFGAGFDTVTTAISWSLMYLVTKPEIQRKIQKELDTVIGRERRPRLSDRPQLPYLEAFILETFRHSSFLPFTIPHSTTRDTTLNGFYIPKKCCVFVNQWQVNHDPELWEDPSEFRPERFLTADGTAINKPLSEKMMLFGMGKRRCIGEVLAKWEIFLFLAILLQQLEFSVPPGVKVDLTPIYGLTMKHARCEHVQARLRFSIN
UniProt P11712, whole entry: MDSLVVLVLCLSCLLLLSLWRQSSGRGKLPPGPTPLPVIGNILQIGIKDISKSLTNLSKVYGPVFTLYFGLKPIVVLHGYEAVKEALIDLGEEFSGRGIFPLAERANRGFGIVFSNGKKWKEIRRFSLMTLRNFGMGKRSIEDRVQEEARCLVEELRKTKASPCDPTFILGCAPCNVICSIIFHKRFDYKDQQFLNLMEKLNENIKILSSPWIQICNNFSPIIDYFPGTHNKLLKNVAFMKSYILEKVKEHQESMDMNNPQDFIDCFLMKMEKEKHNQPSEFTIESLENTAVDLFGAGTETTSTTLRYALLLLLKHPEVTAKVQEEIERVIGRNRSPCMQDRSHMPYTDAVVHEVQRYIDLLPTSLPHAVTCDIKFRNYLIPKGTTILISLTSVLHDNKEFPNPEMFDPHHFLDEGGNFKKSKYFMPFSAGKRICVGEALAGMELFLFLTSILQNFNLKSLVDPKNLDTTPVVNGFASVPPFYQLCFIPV
UniProt P35372, whole entry: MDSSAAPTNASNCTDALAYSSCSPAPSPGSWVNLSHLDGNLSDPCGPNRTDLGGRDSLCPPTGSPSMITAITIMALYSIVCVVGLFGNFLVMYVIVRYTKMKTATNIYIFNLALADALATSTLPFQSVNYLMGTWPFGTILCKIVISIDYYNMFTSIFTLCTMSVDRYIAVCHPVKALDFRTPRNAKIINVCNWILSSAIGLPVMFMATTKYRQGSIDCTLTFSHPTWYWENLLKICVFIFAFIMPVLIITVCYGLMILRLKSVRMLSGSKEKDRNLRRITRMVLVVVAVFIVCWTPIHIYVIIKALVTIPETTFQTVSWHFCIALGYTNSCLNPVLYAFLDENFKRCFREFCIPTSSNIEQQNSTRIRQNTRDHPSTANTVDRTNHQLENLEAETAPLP
UniProt P35363, whole entry: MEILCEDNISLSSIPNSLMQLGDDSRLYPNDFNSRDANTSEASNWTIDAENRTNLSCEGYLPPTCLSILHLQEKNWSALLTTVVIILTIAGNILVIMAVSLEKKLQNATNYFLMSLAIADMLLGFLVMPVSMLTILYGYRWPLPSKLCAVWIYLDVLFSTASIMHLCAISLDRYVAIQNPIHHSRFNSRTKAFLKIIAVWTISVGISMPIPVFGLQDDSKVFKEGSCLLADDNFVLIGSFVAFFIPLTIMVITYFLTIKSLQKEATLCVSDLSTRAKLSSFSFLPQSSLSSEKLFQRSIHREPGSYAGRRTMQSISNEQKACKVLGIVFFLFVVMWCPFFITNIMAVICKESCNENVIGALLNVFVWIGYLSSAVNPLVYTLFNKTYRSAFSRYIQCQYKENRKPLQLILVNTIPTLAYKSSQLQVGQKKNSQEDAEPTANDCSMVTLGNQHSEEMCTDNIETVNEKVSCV

Experiments:
Cytochrome P450 1A2 = Cytochrome P450 1A2 (Homo sapiens, UniProt P05177);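 further: PubChem cytochrome P450 panel assay, CYP1A2 panel member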
Cytochrome P450 2C9 = Cytochrome P450 2C9 (Homo sapiens, UniProt P11712)
[1] = target: T1, Tyrosine-protein phosphatase non-receptor type 7 (Homo sapiens, UniProt P35236); assay type: functional
T1 sequence (P35236 whole entry): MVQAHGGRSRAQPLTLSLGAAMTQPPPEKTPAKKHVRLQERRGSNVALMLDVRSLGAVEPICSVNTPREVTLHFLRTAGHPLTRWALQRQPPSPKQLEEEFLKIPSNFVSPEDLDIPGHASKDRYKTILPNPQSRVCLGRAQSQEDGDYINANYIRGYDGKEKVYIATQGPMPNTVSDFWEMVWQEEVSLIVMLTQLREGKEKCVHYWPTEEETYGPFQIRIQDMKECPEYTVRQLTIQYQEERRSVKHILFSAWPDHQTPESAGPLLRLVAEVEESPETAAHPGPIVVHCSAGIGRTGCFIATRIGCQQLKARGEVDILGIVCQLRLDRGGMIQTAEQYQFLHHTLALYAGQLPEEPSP

[2] = target: T2, Replicative DNA helicase DnaB (Mycobacterium tuberculosis, UniProt P9WMR3); assay: DnaB intein splicing inhibitors, dose response, biochemical, cell-free fluorescence (AID 449749); assay type: functional
T2 sequence (P9WMR3 whole entry): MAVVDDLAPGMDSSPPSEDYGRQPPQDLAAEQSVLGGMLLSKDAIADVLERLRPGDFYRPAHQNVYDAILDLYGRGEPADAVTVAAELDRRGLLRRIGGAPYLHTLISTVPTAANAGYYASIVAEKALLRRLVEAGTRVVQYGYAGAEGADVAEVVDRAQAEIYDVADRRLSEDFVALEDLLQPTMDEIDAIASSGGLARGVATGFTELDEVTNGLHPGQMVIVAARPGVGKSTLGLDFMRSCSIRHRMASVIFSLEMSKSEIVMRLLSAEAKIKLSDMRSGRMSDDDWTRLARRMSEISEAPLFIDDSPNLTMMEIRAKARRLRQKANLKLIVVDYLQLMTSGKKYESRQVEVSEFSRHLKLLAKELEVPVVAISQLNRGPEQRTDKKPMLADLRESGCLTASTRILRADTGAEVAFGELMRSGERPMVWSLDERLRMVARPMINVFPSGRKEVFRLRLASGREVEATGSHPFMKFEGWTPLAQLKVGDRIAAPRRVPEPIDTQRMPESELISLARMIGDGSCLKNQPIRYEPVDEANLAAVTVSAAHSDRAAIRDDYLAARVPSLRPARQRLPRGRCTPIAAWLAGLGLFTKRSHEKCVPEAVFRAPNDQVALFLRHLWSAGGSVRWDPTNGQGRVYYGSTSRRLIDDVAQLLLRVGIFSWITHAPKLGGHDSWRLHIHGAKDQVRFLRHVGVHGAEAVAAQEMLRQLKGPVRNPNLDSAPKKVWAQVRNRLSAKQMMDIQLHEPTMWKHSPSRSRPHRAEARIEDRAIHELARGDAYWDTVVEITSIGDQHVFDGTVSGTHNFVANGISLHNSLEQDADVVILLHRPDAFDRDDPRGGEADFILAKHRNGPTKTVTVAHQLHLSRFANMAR

Mu-type opioid receptor = Mu-type opioid receptor (Homo sapiens, UniProt P35372); assay type: functional, cell-based;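 further: U2OS cells with beta-arrestin recruitment to OPRM1 by beta-gal complementation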
[3] = target: 5-hydroxytryptamine receptor 2A (Mus musculus, UniProt P35363); assay type: functional, cell-based;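 further: CHO-K1 cells with tagged receptor and beta-arrestin; agonist potency measured as compound-induced activation of the receptor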

## C[C@H]1C[C@@H]2[C@@H]([C@@H](O)C[C@@]3(C)[C@H]2CC[C@]3(O)C(=O)CO)[C@@]2(C)C=CC(=O)C=C12
Cytochrome P450 1A2
  AC50: inactive
Cytochrome P450 2C9
  AC50: inactive

## O=S(=O)(O)c1ccc2cc(/N=N/c3cc(S(=O)(=O)O)c4cccnc4c3O)ccc2c1
[1]
  IC50: active: 0.483 µM

## Clc1ccc(COC(Cn2ccnc2)c2ccc(Cl)cc2Cl)cc1 (stereo unspecified) [ECONAZOLE NITRATE]
[2]
  AC50: active: 4.8 µM

## Nc1nc2ccc(OC(F)(F)F)cc2s1 [RILUZOLE]
Mu-type opioid receptor
  EC50: inactive: 92.6 µM
[3]
  EC50: active: 2.92 µM
